In ChEMBL document CHEMBL4024713, “Novel aryl piperazines for alleviation of 'andropause' associated prostatic disorders and depression” (Eur J Med Chem, 2017) one finds fold change (FC) data, which are given here for five compounds.

The target in this test is T1, Alpha-1A adrenergic receptor (Homo sapiens) (UniProt P35348).
T1 sequence (whole entry): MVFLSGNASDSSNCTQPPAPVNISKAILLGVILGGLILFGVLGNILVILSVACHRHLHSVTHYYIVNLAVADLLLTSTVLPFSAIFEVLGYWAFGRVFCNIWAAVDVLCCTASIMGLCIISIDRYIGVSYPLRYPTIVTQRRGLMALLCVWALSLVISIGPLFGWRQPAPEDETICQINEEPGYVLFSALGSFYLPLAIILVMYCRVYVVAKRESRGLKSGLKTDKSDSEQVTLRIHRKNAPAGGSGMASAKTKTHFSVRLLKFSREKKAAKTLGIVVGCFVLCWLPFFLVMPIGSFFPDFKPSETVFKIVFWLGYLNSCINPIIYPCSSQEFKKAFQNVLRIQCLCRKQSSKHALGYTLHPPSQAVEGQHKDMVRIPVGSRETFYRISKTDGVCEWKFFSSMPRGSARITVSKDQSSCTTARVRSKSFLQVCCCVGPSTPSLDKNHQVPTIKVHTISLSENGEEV
Briefly: Antagonist activity at recombinant human alpha1a adrenergic receptor expressed in human Chem1 cell membrane assessed as reduction in ephinephrine-induced calcium mobilization at 1 uM by fluoforte dye based fluorescence assay relative to ephinephrine. The class given is functional. Put shortly: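 α1A-adrenergic receptor-expressing Chem-1 cells, 4 x 10^4/well overnight, loaded with FluoForte calcium dye 45 min at 37 °C then 15 min at room temperature. Compounds at 1 μM; epinephrine 20 μM added at 10 s; tamsulosin 100 nM and 1 μM as reference. Fluorescence (ex 490/em 525 nm) read for 180 s as RFU.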
Background: Calcium assays in cells follow changes in intracellular calcium, usually with a dye or a luminescent sensor.
`O=[N+]([O-])c1cc(C(F)(F)F)ccc1N1CCN(CCCN2CCN(c3ccc(C(F)(F)F)cc3[N+](=O)[O-])CC2)CC1`: the fold change (FC) was 1.6.
The same measure for `O=[N+]([O-])c1ccc(N2CCN(CCCN3CCN(c4ccc([N+](=O)[O-])cc4)CC3)CC2)cc1`: 1.5; for `c1ccc(N2CCN(CCN3CCN(c4ccccn4)CC3)CC2)nc1`: 1.5.
As to `Fc1ccccc1N1CCN(CCCN2CCN(c3ccccc3F)CC2)CC1`, the fold change (FC) was 1.5.
As for `c1ccc(N2CCN(CCCN3CCN(c4ccccn4)CC3)CC2)nc1`, the figure is 1.6.
